From patent US10800791B2, “Triazole ACC inhibitors and uses thereof” (Gilead Apollo, LLC, priority 2015, dated 2020)

The chains behind the UniProt entries cited, without tags or fusion partners.
UniProt Q00955, whole entry: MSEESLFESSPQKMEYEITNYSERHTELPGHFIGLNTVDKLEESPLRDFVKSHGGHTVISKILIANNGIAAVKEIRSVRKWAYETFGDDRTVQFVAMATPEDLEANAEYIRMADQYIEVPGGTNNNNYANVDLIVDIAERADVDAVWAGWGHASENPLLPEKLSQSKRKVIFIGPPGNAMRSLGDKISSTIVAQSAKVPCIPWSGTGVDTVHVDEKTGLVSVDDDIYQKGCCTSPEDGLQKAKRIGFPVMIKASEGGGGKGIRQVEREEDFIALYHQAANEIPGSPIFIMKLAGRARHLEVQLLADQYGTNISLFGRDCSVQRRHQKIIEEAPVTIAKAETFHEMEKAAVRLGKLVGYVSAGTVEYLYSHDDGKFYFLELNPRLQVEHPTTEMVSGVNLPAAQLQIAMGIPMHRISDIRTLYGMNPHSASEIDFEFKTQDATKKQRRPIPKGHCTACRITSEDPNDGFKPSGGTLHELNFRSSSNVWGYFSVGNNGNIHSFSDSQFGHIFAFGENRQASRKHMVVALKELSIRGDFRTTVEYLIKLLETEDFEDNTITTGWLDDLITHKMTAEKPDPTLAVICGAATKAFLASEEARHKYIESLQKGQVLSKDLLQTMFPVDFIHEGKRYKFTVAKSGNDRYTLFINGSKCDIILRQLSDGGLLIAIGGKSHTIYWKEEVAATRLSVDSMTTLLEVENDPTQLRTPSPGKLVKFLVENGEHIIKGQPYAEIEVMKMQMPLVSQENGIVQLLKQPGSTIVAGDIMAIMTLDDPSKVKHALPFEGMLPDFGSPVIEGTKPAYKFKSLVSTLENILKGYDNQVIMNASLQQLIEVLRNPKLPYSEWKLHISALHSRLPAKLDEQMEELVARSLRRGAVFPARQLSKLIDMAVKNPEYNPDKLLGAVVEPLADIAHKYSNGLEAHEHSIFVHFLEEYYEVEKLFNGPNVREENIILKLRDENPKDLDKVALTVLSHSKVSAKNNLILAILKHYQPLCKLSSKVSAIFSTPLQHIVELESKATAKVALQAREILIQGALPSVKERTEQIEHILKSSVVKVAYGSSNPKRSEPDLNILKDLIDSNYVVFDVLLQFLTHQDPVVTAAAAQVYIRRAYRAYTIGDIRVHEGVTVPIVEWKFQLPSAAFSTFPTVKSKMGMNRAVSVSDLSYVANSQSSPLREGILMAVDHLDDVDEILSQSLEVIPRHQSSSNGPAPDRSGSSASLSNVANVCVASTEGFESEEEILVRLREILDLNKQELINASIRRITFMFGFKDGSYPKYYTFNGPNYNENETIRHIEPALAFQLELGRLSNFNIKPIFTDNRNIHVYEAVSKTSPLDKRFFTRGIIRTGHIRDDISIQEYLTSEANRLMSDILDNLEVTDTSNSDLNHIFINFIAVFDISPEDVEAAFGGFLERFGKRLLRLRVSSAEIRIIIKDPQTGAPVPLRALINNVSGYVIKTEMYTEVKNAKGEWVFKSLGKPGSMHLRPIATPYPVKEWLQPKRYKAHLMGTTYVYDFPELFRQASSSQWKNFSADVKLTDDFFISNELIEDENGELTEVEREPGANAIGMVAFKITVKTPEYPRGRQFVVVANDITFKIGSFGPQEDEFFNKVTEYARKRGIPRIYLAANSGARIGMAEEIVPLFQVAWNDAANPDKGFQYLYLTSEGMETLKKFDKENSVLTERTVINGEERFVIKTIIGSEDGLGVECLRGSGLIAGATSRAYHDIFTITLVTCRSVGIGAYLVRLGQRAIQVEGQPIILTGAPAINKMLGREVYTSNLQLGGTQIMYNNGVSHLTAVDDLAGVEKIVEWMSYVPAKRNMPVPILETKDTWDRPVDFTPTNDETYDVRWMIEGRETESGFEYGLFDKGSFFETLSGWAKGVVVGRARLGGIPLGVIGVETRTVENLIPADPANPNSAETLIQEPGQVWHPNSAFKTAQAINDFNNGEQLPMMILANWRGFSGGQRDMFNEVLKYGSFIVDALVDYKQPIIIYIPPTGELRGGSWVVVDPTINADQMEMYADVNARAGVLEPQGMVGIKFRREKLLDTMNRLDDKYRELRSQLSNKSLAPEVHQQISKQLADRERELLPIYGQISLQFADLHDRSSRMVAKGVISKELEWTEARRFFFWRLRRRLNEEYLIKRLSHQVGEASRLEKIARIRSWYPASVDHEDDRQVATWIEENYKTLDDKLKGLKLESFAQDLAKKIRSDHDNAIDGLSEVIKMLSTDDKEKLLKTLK

Biological target: fungal (fACC2) (UniProt Q00955)
Conditions: read-out: fACC2 (in vitro ACC2 Inhibition Assay, IC50); Table 2b, additional results; ADP-Glo, 5 nM ACC2, 20 μM ATP, 20 μM acetyl-CoA

Cc1c(-n2nccn2)sc2c1c(=O)n(C(C)(C)C(=O)NC(C)C)c(=O)n2C[C@H](O)c1cc(F)ccc1OCC#N [Compound I-199]
IC50: 0.3 to 1 nM
